Biological target: CCL-13 (Homo sapiens, UniProt Q99616)
Test: BLI binding assay, biotinylated compounds on streptavidin biosensors, CCL-13
Description: Cytokines and growth factors are important proteins modulating cellular functions, many of which are known to interact with HS.[1,8,34,67] To probe the impacts of the glycan and the core peptide, the binding of glycopeptide 1, pentasaccharide 30, and peptide 31 to several representative growth factors and cytokines including fibroblast growth factor 2 (FGF-2), interleukin 8 (IL-8) and chemokine (C–C motif ligand 13 (CCL-13)) respectively was tested using the biolayer interferometry (BLI). The biotinylated glycopeptide 1, pentasaccharide 30, and peptide 31 were immobilized on streptavidin coated biosensors, and their dissociation constants (KD) with the proteins were measured (Table 2). […]
General procedure for biotinylation
To a solution of free amine compounds in DMSO/H 2O (1/1, 0.5 ml) was added […]
The reaction was stirred at room temperature for 5 hours. Then the mixture was loaded onto a G-15 Sephadex column for purification. […] General procedure for BLI binding assay
The binding assay was performed on the Octet K2 System (Pall ForteBio). The biotinylated […]
compounds were absorbed to streptavidin (SA) sensor for 2 min. The sensor was then balanced in the assay buffer (PBS containing 0.005% P20) and dipped into protein solution in assay buffer at different concentration. After 5 min of association, the sensor was brought back to the previous assay

Sequences of proteins named here, by UniProt entry; tags and fusion partners are left off. Residues count along the entry.
UniProt Q99616, 17-98, species assumed: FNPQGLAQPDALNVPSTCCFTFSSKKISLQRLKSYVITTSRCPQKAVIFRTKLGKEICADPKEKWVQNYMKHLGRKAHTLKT

Q: Which “KD with CCL-13” value does the source give for O=C(O)CCCC[C@@H]1SC[C@@H]2NC(=O)N[C@@H]21 [biotin, reference compound] here?
A: The value was “did not show any significant binding”.

Source: paper PMC8159385, “Chemical synthesis of human syndecan-4 glycopeptide bearing O-, N-sulfation and multiple aspartic acids for probing impacts of the glycan chain and the core peptide on biological functions” (Chemical Science, 2020)
